# Experimental data as given in patent publication US10258635B2, “Formulations and compositions of vitamin D analogs for treating and preventing cancer and other diseases” (priority 2013, dated 2019).
# Test system: Normal prostate WPMY cells
# Test: Viability testing by MTT reduction in normal prostate cells
# Assay type: cell-based
# Settings: 24 hours; AMPI-107 1 and 10 μM, Calcitrol 1 μM
# Description: MTT is reduced in metabolically active cells, in part by the action of dehydrogenase enzymes, to generate reducing equivalents such as NADH and NADPH. The resulting intracellular purple formazan can be solubilized and quantified by spectrophotometry. After 5 minutes at room temperature, absorbances in plates were measured using a plate analyzer set for in dual wavelength comparisons at wavelength of 540 nm with a reference wavelength of 620 nm.
substance,measurement,value
Vitamin D3-3-epoxide [AMPI-107],cell metabolism (MTT reduction),did not significantly depress cell metabolism
